Test results taken from ChEMBL document CHEMBL4406853 (Eur J Med Chem, 2019).

Chains of the proteins cited; added tags and fusions are not shown.
UniProt P35372, whole entry, looked up: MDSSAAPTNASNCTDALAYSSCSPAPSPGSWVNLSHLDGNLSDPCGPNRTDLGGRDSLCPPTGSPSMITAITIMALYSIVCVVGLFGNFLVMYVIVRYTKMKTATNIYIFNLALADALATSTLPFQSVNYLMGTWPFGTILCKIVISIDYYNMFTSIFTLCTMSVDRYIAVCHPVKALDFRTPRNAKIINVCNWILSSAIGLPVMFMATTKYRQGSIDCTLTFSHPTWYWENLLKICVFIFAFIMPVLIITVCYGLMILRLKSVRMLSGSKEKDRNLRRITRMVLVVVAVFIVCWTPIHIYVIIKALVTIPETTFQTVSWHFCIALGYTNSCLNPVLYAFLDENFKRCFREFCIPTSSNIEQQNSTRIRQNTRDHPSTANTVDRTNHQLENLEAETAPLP

Target: Mu-type opioid receptor (Homo sapiens, UniProt P35372)
Experiment: Inhibition of mu opioid receptor (unknown origin) assessed as reduction in intracellular cAMP accumulation relative to control

C[C@@H](Cc1ccsc1)NC(=O)NC[C@H](Cc1ccccc1)N(C)C
Emax: 76%
